{"source": "patent US9439979B2", "about": "“Epidermal growth factor receptor (EGFR) and methods of use in adenoviral-associated virus type 6 (AAV6) transduction” (priority 2010, dated 2016)", "system": "32D-EGFR cells", "assay": "AAV internalization in 32D-EGFR cells (QPCR of vector genome)", "conditions": "AAV6 in 32D-EGFR cells, in the presence of gefitinib; 90 minutes at 37° C.", "data": [{"smiles": "COc1cc2ncnc(Nc3ccc(F)c(Cl)c3)c2cc1OCCCN1CCOCC1", "note": "[gefitinib]", "values": [{"measurement": "decrease of AAV internalization", "result": "over 500%"}]}]}
